Measurements from patent publication US8889678B2, “Acyl guanidine derivatives modulating the hedgehog protein signaling pathway” (Centre National de la Recherche Scientifique, priority 2009, dated 2014).

Sequences of proteins named here, by UniProt entry; tags and fusion partners are left off. Residues count along the entry.
UniProt P56726, 33-793: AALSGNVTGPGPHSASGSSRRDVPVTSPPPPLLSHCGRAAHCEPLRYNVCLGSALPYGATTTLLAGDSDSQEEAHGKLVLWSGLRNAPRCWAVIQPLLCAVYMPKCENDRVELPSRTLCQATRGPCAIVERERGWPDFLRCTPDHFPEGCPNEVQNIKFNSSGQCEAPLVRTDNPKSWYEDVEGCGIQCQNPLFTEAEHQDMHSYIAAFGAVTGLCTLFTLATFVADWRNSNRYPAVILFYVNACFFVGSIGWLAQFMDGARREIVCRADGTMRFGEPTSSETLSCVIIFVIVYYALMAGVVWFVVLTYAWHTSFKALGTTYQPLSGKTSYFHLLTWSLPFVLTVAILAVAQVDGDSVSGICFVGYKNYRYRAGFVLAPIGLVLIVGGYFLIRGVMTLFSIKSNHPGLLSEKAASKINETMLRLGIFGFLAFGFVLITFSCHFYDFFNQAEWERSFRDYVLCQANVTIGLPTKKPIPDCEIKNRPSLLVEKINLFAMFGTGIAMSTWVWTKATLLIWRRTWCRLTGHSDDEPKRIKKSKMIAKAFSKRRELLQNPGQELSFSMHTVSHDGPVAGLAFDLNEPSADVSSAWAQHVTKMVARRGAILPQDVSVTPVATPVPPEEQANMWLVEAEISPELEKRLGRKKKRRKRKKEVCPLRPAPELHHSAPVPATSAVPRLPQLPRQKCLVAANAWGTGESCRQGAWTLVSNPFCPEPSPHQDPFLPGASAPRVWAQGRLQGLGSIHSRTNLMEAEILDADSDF

Molecular target: T1, mouse Smoothened receptor (Mus musculus, UniProt P56726)
T1 construct: expressed in transfected cells; host or cells: HEK293 cells, transiently transfected with Fugene6
Assay: Competition with bodipycyclopamine binding on HEK293 cells transfected with mouse Smoothened
Conditions: 5 nM bodipycyclopamine, 2 hours at 37° C., read-out: IC50 (concentration which inhibits 50% of the bodipycyclopamine binding)

Substance: cyclopamine [reference compound]
- IC50: 30 to 300 nM
